Test results from PubChem BioAssay AID504374 (National Center for Advancing Translational Sciences (NCATS), 2011).
The entries are a selection whose mix differs from that of the whole data set. Results filed as inconclusive are left out. The source made the active and inactive calls. The call rests on the fitted dose curve; in most records, active means well fitted inhibition curve with a large enough effect; inconclusive means small, poorly fitted or top-dose-only effect, or effect the other way; inactive means flat fitted curve, though single readings scatter.

Chains of the proteins cited; added tags and fusions are not shown.
UniProt Q01196, whole entry, looked up: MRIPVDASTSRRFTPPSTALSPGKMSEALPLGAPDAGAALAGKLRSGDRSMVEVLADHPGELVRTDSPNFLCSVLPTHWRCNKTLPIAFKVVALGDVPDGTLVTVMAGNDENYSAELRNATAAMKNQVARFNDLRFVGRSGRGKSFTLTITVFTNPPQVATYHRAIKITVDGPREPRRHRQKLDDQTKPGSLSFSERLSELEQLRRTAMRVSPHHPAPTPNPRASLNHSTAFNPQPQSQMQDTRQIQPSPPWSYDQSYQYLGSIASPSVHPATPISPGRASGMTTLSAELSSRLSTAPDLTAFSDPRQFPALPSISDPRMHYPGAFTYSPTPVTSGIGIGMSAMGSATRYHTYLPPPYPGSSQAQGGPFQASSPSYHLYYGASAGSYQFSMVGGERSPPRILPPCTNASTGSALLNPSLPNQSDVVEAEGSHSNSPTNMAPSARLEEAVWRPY
UniProt Q13951, whole entry, looked up: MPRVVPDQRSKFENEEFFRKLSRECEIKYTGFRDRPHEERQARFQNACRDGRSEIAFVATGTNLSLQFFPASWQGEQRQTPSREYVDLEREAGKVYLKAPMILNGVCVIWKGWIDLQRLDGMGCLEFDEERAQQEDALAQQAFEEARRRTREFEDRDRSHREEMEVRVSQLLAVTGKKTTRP

What follows are compounds tested against Runt-related transcription factor 1 (Homo sapiens) + Core-binding factor subunit beta (Homo sapiens) (UniProt Q01196+Q13951) (assay: qHTS Assay for Compounds Blocking the Interaction Between CBF-beta and RUNX1 for the Treatment of Acute Myeloid Leukemia: Hit Validation). Settings: AlphaScreen CBFb-His/RUNX1-biotin binding.
Description: NIH Chemical Genomics Center [NCGC]
NIH Molecular Libraries Probe Production centers Network [MLPCN]
Assay Submitter (PI): Paul Liu
Core Binding Factor (CBF) abnormalities are associated with 20-25% of all acute myeloid leukemias (AML), of which 5-10% are further sub classified as acute myelomonocytic leukemia with eosinophilia, also known as M4Eo in the FAB classification scheme. This subtype of leukemia is usually associated with chromosome 16 inversion (p13:q22). Chromosome 16 inversion results in formation of the fusion oncogene CBFB-MYH11, which encodes the fusion protein CBF-beta-SMMHC.
It has been hypothesized that the interference of CBF-beta and RUNX1 binding could have therapeutic implications for patients with CBF mediated leukemias. We developed a CBF-beta and RUNX1 binding assay in AlphaScreenTM format and optimized it for high throughput screening to search for inhibitors. The goal of this project is to screen MLPCN's compound collection (MLSMR) for identifying the inhibitors of the interaction between CBF-beta and RUNX1 proteins as research probes. If these probes work well in the animal models, the ultimate goal of this project is to development a new drug treatment for this disease. […]
(6) Detection, Excitation=365 nm Emission=440 nm, Envision reader in AlphaScreenTM mode […]
Further: nearly all actives have a fitted effect of over 60% in size.
Potency means the concentration at half of the fitted maximal effect.

Row | SMILES | Potency
1 | O=C(O)COCCN1CCN(C(c2ccccc2)c2ccc(Cl)cc2)CC1 (stereo unspecified) | active: 791 nM
